Measurements from PMC10887214 (Biomedicines, 2024).

Amino acid sequences for entries named in this document (tags omitted).
UniProt P34972, whole entry: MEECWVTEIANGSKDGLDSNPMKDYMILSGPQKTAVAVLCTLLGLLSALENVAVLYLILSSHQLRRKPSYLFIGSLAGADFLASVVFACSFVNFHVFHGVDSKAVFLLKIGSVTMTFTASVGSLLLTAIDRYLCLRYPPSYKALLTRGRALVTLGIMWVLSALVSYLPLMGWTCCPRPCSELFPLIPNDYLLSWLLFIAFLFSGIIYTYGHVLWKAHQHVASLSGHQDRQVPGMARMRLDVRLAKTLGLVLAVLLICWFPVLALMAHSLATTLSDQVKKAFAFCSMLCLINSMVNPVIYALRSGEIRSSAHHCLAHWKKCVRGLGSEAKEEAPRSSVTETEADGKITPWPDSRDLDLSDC

Biological target: T1, CB2 receptor (hCB2) (Homo sapiens, UniProt P34972)
T1 construct: expressed in transfected cells; host or cells: Xenopus laevis oocytes (cRNA injection)
Assay: Two-electrode voltage-clamp, CB2-GIRK1/GIRK2-RGS4 coupling system expressed in Xenopus oocytes
Format: cell-based

In the case of `Cc1c(C(=O)c2cccc3ccccc23)c2cccc3c2n1[C@H](CN1CCOCC1)CO3` [WIN55,212-2, reference compound], the “Receptor activation (receptor-dependent inward K+ currents, IK,WIN)” value is reported as “activated”.
